Measured water solubility values of organic chemicals

Values as listed in the OPERA 2.9 repository of K. Mansouri.

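These are experimental values that the OPERA curators gathered from public databases to train and test their QSAR models. A listed value is a point estimate from one report or more. How each value was measured is not recorded, so precision varies. Where a salt, mixture or single isomer is drawn, the source does not say that exactly this form was tested. Some upstream entries may be estimates or bounds without being marked so.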

Water solubility is log10 of mol/L, nominally at 25 °C; higher is more soluble.

{"smiles": "Sc1cnc2cncnc2n1", "log S (log10 mol/L)": "-2.71"}
{"smiles": "CCCCCOC(=O)Nc1ccccc1", "name": "N-Pentyl N-phenylcarbamate", "log S (log10 mol/L)": "-3.959"}
{"smiles": "C=CC1CCCCC1", "name": "Vinylcyclohexane", "log S (log10 mol/L)": "-3.866"}
{"smiles": "CCCCCCCCCCCCCCCC(=O)N[C@H](C(=O)O)[C@@H](C)CC", "name": "Isoleucine, N-(1-oxohexadecyl)-", "log S (log10 mol/L)": "-5.526"}
{"smiles": "C[SiH](O[Si](C)(C)C)O[Si](C)(C)C", "name": "1,1,1,3,5,5,5-Heptamethyltrisiloxane", "log S (log10 mol/L)": "-7.046"}
{"smiles": "N[C@@H](CSCCCCCCSC[C@H](N)C(=O)O)C(=O)O", "log S (log10 mol/L)": "-2.771"}
{"smiles": "O=c1[nH]c2[nH]cnc(=O)c2[nH]1", "name": "1H-Purine-6,8-dione, 7,9-dihydro-", "log S (log10 mol/L)": "-2.959"}
{"smiles": "COC(=O)CS(=O)(=O)c1ccc(Cl)cc1", "name": "Methyl [(4-chlorophenyl)sulfonyl]acetate", "log S (log10 mol/L)": "-2.379"}
{"smiles": "COC(=O)C1C(C)=CCCC1(C)C", "stereo": "stereo not given", "name": "Methyl 2,6,6-trimethylcyclohex-2-ene-1-carboxylate", "log S (log10 mol/L)": "-2.909"}
{"smiles": "CCC(CC(C)CC)=NO", "stereo": "stereo not given", "name": "N-(5-Methyl-3-heptanylidene)hydroxylamine", "log S (log10 mol/L)": "-2.131"}
{"smiles": "CC(=O)C(N=Nc1ccc(C(=O)O)cc1)/C(O)=N\\c1ccccc1", "stereo": "stereo partly drawn", "log S (log10 mol/L)": "-4.132"}
{"smiles": "N#CCC(=O)Nc1ccc(Cl)cc1", "name": "Acetamide, N-(4-chlorophenyl)-2-cyano-", "log S (log10 mol/L)": "-3.289"}
{"smiles": "CCC#CC(C)(C)C", "name": "3-Hexyne, 2,2-dimethyl-", "log S (log10 mol/L)": "-3.755"}
{"smiles": "CCCCCCCCC(O)CO", "stereo": "stereo not given", "name": "1,2-Decanediol", "log S (log10 mol/L)": "-2.479"}
{"smiles": "Cc1ncc(C[n+]2csc(CCO)c2C)c(N)n1.[Cl-]", "name": "Thiamine", "log S (log10 mol/L)": "0.221"}
{"smiles": "FCF", "name": "Difluoromethane", "log S (log10 mol/L)": "-1.479"}
{"smiles": "CN(CCO)S(=O)(=O)C(F)(F)C(F)(F)C(F)(F)C(F)(F)F", "name": "2-(N-(Perfluorobutylsulfonyl)-N-methylamino)ethanol", "log S (log10 mol/L)": "-3.404"}
{"smiles": "CC(C)(C)CC(C)(C)c1cc(O)c(C(C)(C)CC(C)(C)C)cc1O", "name": "2,5-Bis(1,1,3,3-tetramethylbutyl)hydroquinone", "log S (log10 mol/L)": "-7.093"}
{"smiles": "Cc1ccc(S(=O)(=O)n2cc(-c3ncc(F)c(N[C@H]4C5CCC(CC5)[C@@H]4C(=O)O)n3)c3cc(F)cnc32)cc1", "log S (log10 mol/L)": "-6.542"}
{"smiles": "CCCCCC[C@H](C/C=C\\CCCCCCCC(=O)OCC(COC(=O)CCCCCCC/C=C\\C[C@@H](CCCCCC)OC(C)=O)OC(=O)CCCCCCC/C=C\\C[C@@H](CCCCCC)OC(C)=O)OC(C)=O", "name": "Glyceryl triacetyl ricinoleate", "log S (log10 mol/L)": "-8.849"}
{"smiles": "Clc1cc(Cl)c(OCC#CI)cc1Cl", "name": "Haloprogin", "log S (log10 mol/L)": "-4.779"}
{"smiles": "CC1=NN(c2cccc(S(=O)(=O)[O-])c2)C(=O)C1/N=N/c1cc(Cl)c(Cl)cc1S(=O)(=O)[O-].[Ca+2]", "stereo": "stereo partly drawn", "log S (log10 mol/L)": "-3.839"}
{"smiles": "CCC[C@H]1CC[C@H]([C@H]2CC[C@H](CC)CC2)CC1", "log S (log10 mol/L)": "-7.772"}
{"smiles": "CCCCCCCC(O)C(O)C(=O)O", "stereo": "stereo not given", "name": "2,3-Dihydroxydecanoic acid", "log S (log10 mol/L)": "-2.356"}
{"smiles": "Cc1cc(S(=O)(=O)[O-])c(/N=N/c2c(O)ccc3ccccc23)cc1Cl.Cc1cc(S(=O)(=O)[O-])c(/N=N/c2c(O)ccc3ccccc23)cc1Cl.[Ba+2]", "log S (log10 mol/L)": "-7.648"}
{"smiles": "NS(=O)(=O)c1cc(S(=O)(=O)c2cccc(O)c2)co1", "name": "4-[(3-Hydroxyphenyl)sulfonyl]-2-thiophenesulfonamide", "log S (log10 mol/L)": "-2.696"}

The 4 lowest values of log S among the entries above:

{"smiles": "CCCCCC[C@H](C/C=C\\CCCCCCCC(=O)OCC(COC(=O)CCCCCCC/C=C\\C[C@@H](CCCCCC)OC(C)=O)OC(=O)CCCCCCC/C=C\\C[C@@H](CCCCCC)OC(C)=O)OC(C)=O", "name": "Glyceryl triacetyl ricinoleate", "log S (log10 mol/L)": "-8.849"}
{"smiles": "CCC[C@H]1CC[C@H]([C@H]2CC[C@H](CC)CC2)CC1", "log S (log10 mol/L)": "-7.772"}
{"smiles": "Cc1cc(S(=O)(=O)[O-])c(/N=N/c2c(O)ccc3ccccc23)cc1Cl.Cc1cc(S(=O)(=O)[O-])c(/N=N/c2c(O)ccc3ccccc23)cc1Cl.[Ba+2]", "log S (log10 mol/L)": "-7.648"}
{"smiles": "CC(C)(C)CC(C)(C)c1cc(O)c(C(C)(C)CC(C)(C)C)cc1O", "name": "2,5-Bis(1,1,3,3-tetramethylbutyl)hydroquinone", "log S (log10 mol/L)": "-7.093"}